Data reported in US20260035367A1 (Celgene Corporation, priority 2021, published 2026).

Chains of the proteins cited; added tags and fusions are not shown. Residues count along the entry.
UniProt Q04759, 362-706 limits assumed: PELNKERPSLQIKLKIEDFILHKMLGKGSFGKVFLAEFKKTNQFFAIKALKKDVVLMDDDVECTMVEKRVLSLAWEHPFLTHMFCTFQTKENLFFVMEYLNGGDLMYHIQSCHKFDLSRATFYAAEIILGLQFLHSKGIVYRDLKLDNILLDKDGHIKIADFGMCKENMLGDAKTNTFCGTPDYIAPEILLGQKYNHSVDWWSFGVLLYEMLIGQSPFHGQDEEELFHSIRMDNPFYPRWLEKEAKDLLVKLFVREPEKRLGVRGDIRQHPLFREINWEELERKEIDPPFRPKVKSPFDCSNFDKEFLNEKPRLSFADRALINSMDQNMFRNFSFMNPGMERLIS
UniProt Q05655, 345-676 limits assumed: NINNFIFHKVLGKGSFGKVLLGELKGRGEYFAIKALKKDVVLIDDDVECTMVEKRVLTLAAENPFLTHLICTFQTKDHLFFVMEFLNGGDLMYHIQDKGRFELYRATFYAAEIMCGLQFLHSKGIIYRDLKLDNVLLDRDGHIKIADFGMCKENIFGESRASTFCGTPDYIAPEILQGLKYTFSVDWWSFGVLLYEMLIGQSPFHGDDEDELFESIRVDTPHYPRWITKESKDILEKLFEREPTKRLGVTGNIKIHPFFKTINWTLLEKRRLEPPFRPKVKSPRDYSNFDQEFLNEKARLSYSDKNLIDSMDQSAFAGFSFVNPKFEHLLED

Legend:
[1] = biological target: Recombinant human PKC-theta (His-tagged 362-706) (Homo sapiens, UniProt Q04759); experiment: PKC-theta inhibition assay (HTRF KinEASE kit); conditions: ATP 6.5 μM, STK substrate 525 nM; for PKC-theta HTRF pIC50 (binned): binned A to H
[2] = biological target: Recombinant human PKC-delta (His-tagged 345-676) (Homo sapiens, UniProt Q05655); experiment: PKC-delta inhibition assay (HTRF KinEASE kit); format: biochemical; conditions: ratio, PKC-theta vs PKC-delta HTRF; for PKC-theta/PKC-delta selectivity (binned): binned A to G
[3] = test system: IL-2 secretion by human effector memory T cells (TEM); experiment: Effector memory T cells IL-2 release assay (CD3/CD28 stimulation, HTRF IL-2 detection); conditions: 24 h; for PKC-theta IL2 pIC50 (binned): binned A to G

| SMILES | PKC-theta HTRF pIC50 [1] | PKC-theta HTRF pIC50 (binned) [1] | PKC-theta/PKC-delta selectivity [2] | PKC-theta/PKC-delta selectivity (binned) [2] | PKC-theta IL2 pIC50 [3] | PKC-theta IL2 pIC50 (binned) [3] |
| --- | --- | --- | --- | --- | --- | --- |
| C[C@@H]1CNCCN1c1cc(C(C)(F)F)cc(-c2ccnc3c2C(C)(C)C(=O)N3)n1 | 9.0 | A (a measured pIC50 of between 9.0 and 9.5) | 18 | D (a ratio of between 10 and 20) | 8.1 | B (a measured pIC50 of between 8.0 and 8.5) |
| CC(F)(F)c1cc(-c2ccnc3c2C(C)(C)C(=O)N3)nc(N2CCNCC2)c1 | 8.3 | C (a measured pIC50 of between 8.0 and 8.5) | 14 | D (a ratio of between 10 and 20) | 7.3 | D (a measured pIC50 of between 7.0 and 7.5) |
| C[C@H]1NCCN(c2cc(C(C)(F)F)cc(-c3ccnc4c3C(C)(C)C(=O)N4)n2)[C@H]1C | 8.1 | C (a measured pIC50 of between 8.0 and 8.5) | 26 | C (a ratio of between 20 and 30) | 7.0 | D (a measured pIC50 of between 7.0 and 7.5) |
| C[C@@H]1NCCN(c2cc(C(C)(F)F)cc(-c3ccnc4c3C(C)(C)C(=O)N4)n2)[C@@H]1C | 9.4 | A (a measured pIC50 of between 9.0 and 9.5) | 30 | B (a ratio of between 30 and 50) | 8.3 | B (a measured pIC50 of between 8.0 and 8.5) |
| C[C@H]1CN(c2cc(C(C)(F)F)cc(-c3ccnc4c3C(C)(C)C(=O)N4)n2)CCN1 | 8.5 | B (a measured pIC50 of between 8.5 and 9.0) | 23 | C (a ratio of between 20 and 30) | 7.5 | D (a measured pIC50 of between 7.0 and 7.5) |
